Assay results reported in patent US20010013317A1, “Medium for coloring live bait worms” (priority 1999, published 2001).

Test: Solubility of colorant in water
Details: at 25° C.

O=S(=O)([O-])c1ccc(N=Nc2c(O)ccc3cc(S(=O)(=O)[O-])ccc23)cc1.[Na+].[Na+] [FD & C Yellow 6]
Solubility in water: 19 mg/mL
